According to patent publication US8685443B2, “Sequestering subunit and related compositions and methods” (Alpharma Pharmaceuticals LLC, priority 2002, dated 2014):

Details: in comparison to a 15 mg dose of hydrocodone

CN1CC[C@]23c4c5ccc(O)c4O[C@H]2C(=O)CC[C@H]3[C@H]1C5 [Hydromorphone]
Calculated Dose (equianalgesic dose): 3.375 mg
